This is an account of results in US20190256842A1.

This experiment concerns the target RNAP holoenzyme (bacterial (E. coli S1030 host cells)).

ω-Zif268-DBD fusion protein: the pIII-luciferase production (luminescence, one-hybrid reporter in E. coli) was over 10 fold.
